# Patent US6448405B1, “Steroid receptor modulator compounds and methods” (Ligand Pharmaceuticals Incorporated, priority 1994, dated 2002)
# Chains of the proteins cited; added tags and fusions are not shown. Lines headed by an entry give the natural chain unless they say otherwise; changes in a name come on top.
# UniProt P10275: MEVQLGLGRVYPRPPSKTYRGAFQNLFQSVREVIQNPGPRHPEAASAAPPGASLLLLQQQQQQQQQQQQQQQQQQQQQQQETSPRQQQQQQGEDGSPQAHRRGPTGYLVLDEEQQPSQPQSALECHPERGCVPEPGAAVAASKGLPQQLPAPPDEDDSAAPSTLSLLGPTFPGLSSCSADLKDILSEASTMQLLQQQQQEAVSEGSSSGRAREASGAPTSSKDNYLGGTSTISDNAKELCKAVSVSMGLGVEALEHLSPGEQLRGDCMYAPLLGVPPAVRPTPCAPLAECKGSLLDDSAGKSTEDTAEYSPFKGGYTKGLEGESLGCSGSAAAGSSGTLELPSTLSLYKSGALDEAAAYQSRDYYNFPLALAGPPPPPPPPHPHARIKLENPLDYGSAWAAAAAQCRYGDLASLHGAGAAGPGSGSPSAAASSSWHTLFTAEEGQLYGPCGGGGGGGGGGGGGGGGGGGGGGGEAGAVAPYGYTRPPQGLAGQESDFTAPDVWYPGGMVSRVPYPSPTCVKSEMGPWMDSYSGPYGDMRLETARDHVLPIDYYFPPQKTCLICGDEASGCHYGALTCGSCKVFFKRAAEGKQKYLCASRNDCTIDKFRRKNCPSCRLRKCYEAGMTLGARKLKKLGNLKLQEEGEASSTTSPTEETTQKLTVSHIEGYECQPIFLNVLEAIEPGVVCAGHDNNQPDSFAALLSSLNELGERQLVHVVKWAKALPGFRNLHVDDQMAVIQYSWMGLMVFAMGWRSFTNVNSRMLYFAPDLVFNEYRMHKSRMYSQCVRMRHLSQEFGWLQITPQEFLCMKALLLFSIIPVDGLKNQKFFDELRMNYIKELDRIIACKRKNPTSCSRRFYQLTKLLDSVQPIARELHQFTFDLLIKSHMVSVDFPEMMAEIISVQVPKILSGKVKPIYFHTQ
# pEC50, pIC50, pKi: −log10 of the molar value. Like-named read-outs stand apart in the source and are kept apart here.
# Experiments:
# [1] = biological target: T1, human progesterone receptor A form (PR-A) (Homo sapiens, UniProt P06401); test: PR binding assay, baculovirus extract, [3H] progesterone; conditions: competition with [3H] progesterone, 4° C., 16 hours
# T1 sequence (P06401 1-769 isoform P06401-2): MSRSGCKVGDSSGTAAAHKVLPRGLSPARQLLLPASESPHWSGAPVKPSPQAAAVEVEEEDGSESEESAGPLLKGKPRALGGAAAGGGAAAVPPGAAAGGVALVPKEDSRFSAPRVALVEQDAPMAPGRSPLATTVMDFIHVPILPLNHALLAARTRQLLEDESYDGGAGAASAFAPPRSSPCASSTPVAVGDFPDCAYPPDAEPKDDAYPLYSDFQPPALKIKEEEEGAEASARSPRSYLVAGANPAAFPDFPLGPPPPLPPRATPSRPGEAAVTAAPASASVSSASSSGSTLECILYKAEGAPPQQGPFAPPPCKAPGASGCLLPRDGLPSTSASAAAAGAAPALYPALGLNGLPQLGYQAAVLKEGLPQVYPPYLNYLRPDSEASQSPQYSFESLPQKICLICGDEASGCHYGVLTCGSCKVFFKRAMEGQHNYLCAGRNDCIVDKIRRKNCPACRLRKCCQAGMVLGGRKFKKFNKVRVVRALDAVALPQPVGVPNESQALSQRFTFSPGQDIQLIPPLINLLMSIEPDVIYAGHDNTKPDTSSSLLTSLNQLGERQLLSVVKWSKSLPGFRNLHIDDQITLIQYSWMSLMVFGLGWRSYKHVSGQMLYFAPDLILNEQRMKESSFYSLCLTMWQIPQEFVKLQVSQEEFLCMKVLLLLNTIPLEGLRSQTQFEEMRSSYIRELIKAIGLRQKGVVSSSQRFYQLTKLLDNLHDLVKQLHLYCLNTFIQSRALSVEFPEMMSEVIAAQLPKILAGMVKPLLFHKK
# human PR-B = biological target: T2, human PR-B (Homo sapiens, UniProt P06401); test: Co-transfection assay, PR agonist and antagonist activity, CV-1 cells; conditions: read-out: PR Agonist CV-1 Cells Potency, agonist mode;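 note: luciferase reporter driven by a hormone response element, co-transfected with human PR-B into CV-1 monkey kidney cells, agonists raise and antagonists lower the reporter signal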
# T2 sequence (P06401 1-933): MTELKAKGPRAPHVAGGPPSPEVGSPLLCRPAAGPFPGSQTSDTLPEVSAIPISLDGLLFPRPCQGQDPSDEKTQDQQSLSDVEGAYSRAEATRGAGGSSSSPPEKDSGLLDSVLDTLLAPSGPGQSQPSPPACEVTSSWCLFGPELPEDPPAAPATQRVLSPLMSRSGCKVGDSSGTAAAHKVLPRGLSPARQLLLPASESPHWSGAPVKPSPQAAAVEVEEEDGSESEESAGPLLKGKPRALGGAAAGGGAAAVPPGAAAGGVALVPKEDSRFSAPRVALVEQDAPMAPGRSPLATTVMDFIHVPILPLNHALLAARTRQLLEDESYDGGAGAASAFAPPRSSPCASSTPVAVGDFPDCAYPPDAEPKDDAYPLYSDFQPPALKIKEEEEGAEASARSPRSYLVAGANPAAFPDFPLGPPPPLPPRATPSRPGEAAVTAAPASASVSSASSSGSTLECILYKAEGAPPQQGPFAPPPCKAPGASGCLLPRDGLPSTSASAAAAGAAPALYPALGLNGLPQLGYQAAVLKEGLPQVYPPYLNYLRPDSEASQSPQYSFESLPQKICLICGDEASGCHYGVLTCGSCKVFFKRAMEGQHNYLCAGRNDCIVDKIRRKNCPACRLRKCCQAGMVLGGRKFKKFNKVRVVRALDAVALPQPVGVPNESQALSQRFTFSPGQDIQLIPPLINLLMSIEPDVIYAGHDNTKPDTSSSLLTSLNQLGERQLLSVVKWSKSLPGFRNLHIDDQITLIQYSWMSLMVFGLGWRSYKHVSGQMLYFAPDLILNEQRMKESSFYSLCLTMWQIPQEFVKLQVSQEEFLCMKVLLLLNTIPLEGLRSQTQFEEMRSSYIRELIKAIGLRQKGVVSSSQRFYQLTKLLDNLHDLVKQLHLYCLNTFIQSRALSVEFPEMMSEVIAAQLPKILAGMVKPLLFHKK
# [2] = biological target: T3, human androgen receptor (AR) (Homo sapiens, UniProt P10275); test: Co-transfection assay, AR agonist and antagonist activity, CV-1 cells (pRShAR); assay type: cell-based; conditions: for pEC50: agonist mode, EC50, read-out: AR Agonist CV-1 Cells Potency; for pIC50: antagonist mode, IC50, read-out: AR Antagonist CV-1 Cells Potency
# T3 construct: expressed in transfected cells; host or cells: CV-1 cells, transient transfection
# human AR = human AR (Homo sapiens, UniProt P10275); test: AR whole cell binding assay, transfected COS-1 cells, 3H-DHT; conditions: read-out: AR Binding Ki; Table 2; competition with 1 nM 3H-DHT, COS-1 whole cells
Substance,pKi [1],pEC50 (human PR-B),pEC50 ([2]; Table 2),pIC50 ([2]; Table 2),pEC50 [2],pIC50 ([2]; DHT at its EC50),pKi (human AR)
"1,2-Dihydro-2,2.4-trimethylindeno[2,1-f]quinoline [Compound 116]",7.42,–,–,–,–,–,–
"8-Bromo-12-dihydro-2,2,4-trimethylindeno[1,2-]quinoline [Compound 117]",< 5.00,< 5.00,–,–,–,–,–
"(R/S)-4-Ethyl-1,2,3,4-tetrahydro-1-methyl-8-pyranono[5,6-g]quinoline [Compound 416]",–,–,6.47,5.30,6.47,5.30,6.41
